Results on two compounds are retold here after ChEMBL document CHEMBL2440059, “Antiproliferative, antiandrogenic and cytotoxic effects of novel caffeic acid derivatives in LNCaP human androgen-dependent prostate cancer cells” (Bioorg Med Chem, 2013).

In the assay the test system is LNCaP. Nature of the assay: Antiandrogenic activity in human LNCAP cells assessed as reduction in DHT-stimulated PSA release after 24 hrs by ELISA. It is filed as functional, cell-based.

Molecules are shown by their SMILES.

On to `O=C(/C=C/c1ccc(O)c(O)c1)OCCC1CCCCC1`, for which the inhibition result is “Dose-dependent effect”.

`O=C(/C=C/c1ccc(O)c(O)c1)OCCc1ccccc1` [CAFFEIC ACID PHENETHYL ESTER]: the inhibition result was “Dose-dependent effect”.
